This assay deals with Aedes aegypti. The assay can be described thus: K & D module mosquito anti-biting (repellent) bioassay. The format is in vivo. The protocol:
Insects: Ae. aegypti(L.) (red eye Liverpool strain) and An. stephensi Liston used in the study were from colonies maintained at the Walter Reed Army Institute of Research, Silver Spring, Md. […] Adults were maintained in a photoperiod of 12:12 (L:D) h at 27° C. and 80% RH with cotton pads moistened with 10% aqueous sucrose solution. Mated females were 5-15 d old when they were used in bioassays. Ae. aegypti females had access only to water 24 h and neither food nor water for another 24 h before testing. An. stephensi females were provided with water alone 24 h before testing.
Routinely, a six-celled K & D module containing five mosquitoes/cell was positioned over cloth treatments covering the six blood-membrane wells, and trap doors of the K&D modules were opened to expose the treatments to the sets of mosquitoes. After a 3 minute exposure, the number of mosquitoes biting through cloth treatments in each cell was recorded and mosquitoes were prodded back into the cells. […] Experiments were replicated 12, 18, 32, or 56 times. Thus, 60, 90, 160. or 280 mosquitoes were tested against each treatment depending on the experiment, and the proportion of mosquitoes not biting for each treatment was calculated. […]

Molecules are shown by their SMILES. Marks after values point to notes of the source that are not given here.

The source of these data is US20100190849A1, “Novel Clerodanes and Methods for Repelling Arthropods” (priority 2006, published 2010).

`CC1=CCC[C@@H]2[C@@](C)(CC(=O)O)[C@H](C)CC[C@@]12C` [13,14,15,16-tetranorclerod-3-en-12-oic acid]: the “biting deterrent efficacy (in words)” value (Example 2, Table 7) is “equivalent to both callicarpenal and picaridin”. The “Proportion Not Biting” value (Table 7, Example 2, synthetic compounds, dose not given) was 0.60^b.
